Results taken from patent publication US5418150A, “Method of cleaving DNA” (priority 1993, dated 1995).

Chains of the proteins cited; added tags and fusions are not shown. Lines headed by an entry give the natural chain unless they say otherwise; changes in a name come on top.
UniProt P50187: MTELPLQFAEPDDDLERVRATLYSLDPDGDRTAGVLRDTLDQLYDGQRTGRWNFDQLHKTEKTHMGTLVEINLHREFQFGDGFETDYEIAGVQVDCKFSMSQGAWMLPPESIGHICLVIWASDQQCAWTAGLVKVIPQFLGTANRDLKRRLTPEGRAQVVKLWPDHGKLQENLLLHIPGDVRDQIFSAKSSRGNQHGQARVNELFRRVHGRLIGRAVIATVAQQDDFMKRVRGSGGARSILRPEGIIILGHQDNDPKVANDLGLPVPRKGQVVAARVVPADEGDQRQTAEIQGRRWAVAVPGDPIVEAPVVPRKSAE

Tests used:
Nae I [1] = target: T1, Nae I (Lentzea aerocolonigenes, UniProt P50187); experiment: Activation of Nae I cleavage of M13mp18 RFI DNA; type: biochemical, Nocardia aerocolonigenes; design: Activation of Nae I cleavage of M13mp18 RF1 DNA: key to the marks not given beside the values
Nae I [2] = target: T1, Nae I; experiment: Nae I cleavage of recognition sites in various DNAs (quantitative gel assay); type: biochemical, Nocardia aerocolonigenes

In the case of “CTAGCTGGTGGTGGGCGCCGGCGGTGTGGGCAGCTGGTGAGCT”, the “Activation of Nae I cleavage of M13mp18 RF1 DNA” value (Nae I [1]; compared to cleavage caused by an equal concentration of pBR322 Nae I sites) is reported as “++++”, the “Activating Nae I cleavage of M13mp18 doublestranded supercoiled DNA” value (Nae I [1]; double-stranded conformation as listed (sc, nk, lin, ds)) is reported as “Yes” and the KA (Nae I [1]; from replot of FIG. 2a, varying activator at constant M13mp18 concentration) is reported as “about 6 nM”. For the same sequence, the KA (Nae I [1]; from slope of plot of Y-intercept of FIG. 2b against Y-intercept/[activator]) was “about 10 nM”, the “Effect on Nae I cleavage of M13mp18” value (Nae I [1]; in the presence of 1 mM spermidine) was “completely inhibited” and the “Activating Nae I cleavage of M13mp18 doublestranded supercoiled DNA” value (Nae I [1]; single-stranded (ss), 0 sites) was “No”. The “KA for the oligonucleotide duplex (activating site)” value (Nae I [1]; summary of both determinations) was 6 to 10 nM, the “Cleaved by Nae I” value (Nae I [2]; absence of additional DNA or spermidine, 2 units Nae I, 0.15 μg DNA, 1 hr 37° C., double-stranded conformation as listed (sc, nk, lin, ds)) was “Yes” and the Km (Nae I [2]; read-out: KM for cleavage of the oligonucleotide activator duplex, substrate binding site, first order kinetics) was 0.246 µM. For the same sequence, the “Cleaved by Nae I” value (Nae I [2]; single-stranded (ss), 0 sites) was “No”.
